Among the data in patent publication US11912763 (dated 2024) are EC50 values, retold here.

This test has as its target human CLDN18.2 (human, UniProt P56856). Briefly: ELISA.

B1: LB305 CLDN18.2 arm (antibody)
chain 1: QVQLVQSGAEVKKPGSSVKVSCKASGYAFSNYLIEWVKQAPGQGLEWIGLINPGSGGTNYNEKFKGKATITADKSTSTAYMELSSLRSEDTAVYYCARVYYGNSFAYWGQGTLVTVSS
chain 2: DIVMTQSPDSLAVSLGERATISCKSSQSLLNSGNQKNYLTWYQQKPGQPPKLLIYWASTRESGVPDRFSGSGSGTDFTLTISSLQAEDVAVYYCQNDYFYPFTFGQGTKLEIK
For the molecule B1, a half-maximal response (EC50) required 0.44 nM.
